Results on one substance are retold here after patent US5961978A, “Therapeutically useful peptides and peptide fragments” (Norsk Hydro, a.s., priority 1991, dated 1999).

This assay relates to PBMC. The assay can be described thus: In vitro stimulation of PBMC from healthy donors with p21 ras peptide mixtures (3H-thymidine incorporation). The settings on record: PBMC 100000 cells per well; IL2 1 U/ml where added. Type of assay: cell-based, human. As to the method: Mononuclear cells from peripheral blood (PBMC) were isolated from defibrinated blood by centrifugation on Lymphoprep (Nycomed, Oslo, Norway). Washed PBMC were resuspended in RPMI 1640 (Gibco, Paisley, Scotland) supplemented with 100 IU/ml penicillin, streptomycin (100 μg/ml) and 15% autologous serum, and the indicated amounts of synthetic peptides and incubated in a 5% CO2 incubator at 37° C. All of the peptides representing mutations in position 12 and 13 contain an additional alanine or valine in the C-terminus.
Cultures were incubated for 2 days at 37° C. in a 5% CO2 incubator, and pulsed overnight with 1 μCi of ^3 H-thymidine (Amersham, England) per well before harvesting onto glass fibre filters by an automated cell harvester (Scatron, Lierbyen, Norway). Thymidine incorporation into DNA was quantitated by liquid scintillation counting using an LKB 1205 Betaplate Liquid Scintillation counter. Data are given as medians of triplicate cultures. Controls included T cell clones cultured alone, or with APC in the absence of peptides. The panels are scaled according to the magnitude of the positive response.
Peripheral blood mononuclear cells from healthy donors were stimulated in vitro with mixtures of synthetic p21 ras peptides according to the present invention as described in FIG. 1.
No primary response against the peptide mixtures could be observed. […]
(In general: Dividing cells build labelled thymidine or BrdU into new DNA.)

As to “IL2: recombinant human IL-2, 1 U/ml final dilution”, the “PRIMARY RESPONSE” value was 14060,7 CPM and the “RESPONSE AFTER THE THIRD STIMULATION WITH PEPTIDE-MIXTURE III” value is 29768,4 CPM.
